Measurements published in ChEMBL document CHEMBL4732103, “Development of Indoleamine 2,3-Dioxygenase 1 Inhibitors for Cancer Therapy and Beyond: A Recent Perspective” (J Med Chem, 2020).

Sequences of proteins named here, by UniProt entry; tags and fusion partners are left off.
UniProt P14902, whole entry, looked up: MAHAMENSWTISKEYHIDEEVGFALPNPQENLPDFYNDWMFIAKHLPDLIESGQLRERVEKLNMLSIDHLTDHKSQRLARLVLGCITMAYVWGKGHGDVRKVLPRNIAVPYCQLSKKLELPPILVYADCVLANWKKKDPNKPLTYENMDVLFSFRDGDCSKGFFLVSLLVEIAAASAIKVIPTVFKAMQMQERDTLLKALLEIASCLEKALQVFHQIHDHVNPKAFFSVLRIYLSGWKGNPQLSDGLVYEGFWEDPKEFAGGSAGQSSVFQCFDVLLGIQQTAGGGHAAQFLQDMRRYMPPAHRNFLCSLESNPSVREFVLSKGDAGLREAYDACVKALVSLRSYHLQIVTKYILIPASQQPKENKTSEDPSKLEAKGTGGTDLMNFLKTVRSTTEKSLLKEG
UniProt Q6ZQW0, whole entry, looked up: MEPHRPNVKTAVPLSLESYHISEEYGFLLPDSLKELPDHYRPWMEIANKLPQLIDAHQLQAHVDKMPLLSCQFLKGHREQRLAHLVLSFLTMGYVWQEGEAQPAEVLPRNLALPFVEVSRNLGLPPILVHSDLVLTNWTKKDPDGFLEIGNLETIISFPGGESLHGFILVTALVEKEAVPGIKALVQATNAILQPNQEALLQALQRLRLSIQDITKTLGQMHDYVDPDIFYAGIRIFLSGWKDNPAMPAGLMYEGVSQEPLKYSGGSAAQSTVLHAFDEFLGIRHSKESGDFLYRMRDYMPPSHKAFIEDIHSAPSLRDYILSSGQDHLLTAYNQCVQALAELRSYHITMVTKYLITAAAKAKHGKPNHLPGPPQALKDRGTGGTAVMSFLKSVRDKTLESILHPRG
UniProt P48775, whole entry, looked up: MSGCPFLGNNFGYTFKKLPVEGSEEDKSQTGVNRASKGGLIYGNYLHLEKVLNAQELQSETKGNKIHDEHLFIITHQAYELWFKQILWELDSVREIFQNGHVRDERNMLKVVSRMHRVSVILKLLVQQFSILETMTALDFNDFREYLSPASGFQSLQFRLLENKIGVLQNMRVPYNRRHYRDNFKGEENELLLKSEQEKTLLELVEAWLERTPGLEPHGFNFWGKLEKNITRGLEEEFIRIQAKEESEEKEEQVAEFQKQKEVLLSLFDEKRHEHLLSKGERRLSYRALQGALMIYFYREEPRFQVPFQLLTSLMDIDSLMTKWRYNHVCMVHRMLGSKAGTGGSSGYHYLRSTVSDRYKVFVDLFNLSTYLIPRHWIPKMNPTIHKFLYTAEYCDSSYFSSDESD

Columns and labels:
[1] = target: T1, Indoleamine 2,3-dioxygenase 1 (Homo sapiens, UniProt P14902)
[2] = target: Indoleamine 2,3-dioxygenase 2 (Homo sapiens, UniProt Q6ZQW0)
[3] = target: T1, Indoleamine 2,3-dioxygenase 1; conditions: hela
[4] = target: Tryptophan 2,3-dioxygenase (Homo sapiens, UniProt P48775)

COP(C)(=O)NCCCNc1nonc1/C(=N/O)Nc1ccc(F)c(Br)c1 (centres undefined)
IC50 [1]: 0.094 µM
IC50 [2]: 0.31 µM
IC50 [3]: 0.0126 µM
IC50 [4]: 2.6 µM
